Screening results as filed in PubChem.
Compounds with a hit are over-represented: about 3.7% of the library has one in this group of screens.
miR-21 reporter: raises the signal of a miR-21 reporter; AID 2288; 340,000 tested, under 10 active; Potency, µM (doses to about 38.3 µM), inactives show at the top dose reporter change, positive = more light; HeLa miR-21 FLuc reporter, luciferase, 48 h; active = well fitted rising curve with a large enough effect; inconclusive = small, poorly fitted or top-dose-only effect; inactive = no such curve, though single readings can be large or run the other way;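 note: % of control where 0% means no effect; miR-21 action dims this reporter so a rising signal means less miR-21 action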
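Using DMEM plus 10% FBS, HeLa miR-21-FLuc cells are incubated with test compounds (final up to about 40uM) for 48 hours; firefly luciferase signal is then imaged following reagent-mediated lysis.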
p53 reactivation: restores transcriptional activity of mutant p53; H1299 p53-A138V BP100-luciferase reporter, luminescence, 24 h; 320,000 compounds, 0.063% hits; Potency, µM (titrated, usually from 92.2 µM), without a hit: at the top dose activity change, positive = activation, usual class: activators; also: potency is read from the fitted curve at half-maximal effect; % of control where 0% means no effect; nearly all actives have a fitted effect of over 45% in size
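p53-null H1299 cells stably carrying temperature-sensitive p53-A138V and a BP100-luciferase reporter were pinned with compounds (4-point, 1:5 series) and held 24 hrs at 37 deg C. Luminescence was read 10 min after detection reagent.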
A549 tox-1: counter-screen for Nrf2 inhibitors: cytotoxicity in A549 cells. Potency, µM (top dose mostly 46 µM), without a hit: at the top dose activity change, negative = cytotoxicity, hits mostly inhibitors. A549 ARE-Fluc cells, CellTiter-Fluor viability, 18-24 h. 390,000 compounds, 0.16% hits; also: potency is read from the fitted curve at half-maximal effect; % is scaled to controls: 0 for no effect and ±100 for the full control effect
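A549 ARE-Fluc cells in 5% FBS OPTI-MEM, 5000 cells/well, rested 2 h then exposed to compounds in concentration-response for 18-24 h at 37 °C. Viability by CellTiter-Fluor fluorescence (Ex 405/Em 525) after 30 min; luciferase luminescence (BugLite, 15 min, RT) read afterwards.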
ClpP mod: qHTS Assay for Activators of ClpP; ATP-dependent Clp protease proteolytic subunit (Bacillus subtilis (strain 168)), P80244; purified B. subtilis ClpP, FRET peptide cleavage, 20 min; Potency, µM (top dose mostly 57.5 µM), for the others: at the top dose activity change, negative = active; 340,000 compounds, 1.9% hits; AID 651965, 2013; active = well fitted falling curve with a large enough effect; inconclusive = small, poorly fitted or top-dose-only effect; inactive = no such curve, though single readings can be large or run the other way; also: potency is read from the fitted curve at half-maximal effect; the source files actives as falling curves though it sought activators and does not explain the sign; nearly all actives have a fitted effect of over 65% in size
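ClpP 10 microg/mL final, pH 8 Tris/KCl buffer with BSA, glycerol, Tween-20; compound pinned in; FRET-FV substrate; RT 20 min; Ex320/Em430; ΔFRET vs ADEP 5.8 microM, DMSO, no enzyme.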
Nrf2 block: inhibitors of Nrf2 signaling. AID 504444. 360,000 compounds, 2.1% hits. A549 ARE-Fluc reporter, luciferase luminescence, 18-24 h. Potency, µM (highest dose often 46 µM), for inactives: at the highest dose activity change, negative = inhibition, most hits filed as inhibitors; also: potency is read from the fitted curve at half-maximal effect; % is scaled to controls: 0 for no effect and ±100 for the full control effect; nearly all actives have a fitted effect of over 60% in size
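A549 ARE_Fluc cells (5000/well, 5% FBS OPTI-MEM) pre-incubated 2 h, then treated with compounds 18-24 h at 37C/5% CO2 in concentration-response. CellTiter-Fluor viability read first; BugLite luciferase luminescence after 15 min at room temperature gives Nrf2 activity.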
Nrf2 ARE act: activates Nrf2 signaling; AREc32 ARE-luciferase reporter (MCF7-derived line), luminescence, 24 h; 410,000 compounds, 0.31% hits; Potency, µM (titrated, usually from 46.1 µM), without a hit: top-dose activation, hits mostly activators; also: potency is read from the fitted curve at half-maximal effect; % of control where 0% means no effect; nearly all actives have a fitted effect of over 65% in size
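AREc32_Fluc, 1000 cells/well, OPTI-MEM + 5% FBS, o/n 37 deg C 5% CO2; 23 nL cpd by pin tool, 24 hr; Steady-Glo 30 min RT, luminescence.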
FLuc counter 3: blocks purified firefly luciferase in Nrf2 counterscreen; shares compounds with Nrf2 block; purified firefly luciferase, luminescence inhibition; Potency, µM (top dose mostly 57.5 µM), for inactives: at the highest dose activity change, negative = inhibition, usual class: inhibitors; 1,400 compounds, 4% hits; AID 720522; also: potency is read from the fitted curve at half-maximal effect; % is scaled to controls: 0 for no effect and ±100 for the full control effect; nearly all actives have a fitted effect of over 65% in size
A549 tox-2: toxic to A549 ARE-Fluc cells in Nrf2 counterscreen; Potency, µM (doses to about 46.1 µM), without a hit: top-dose activity change, negative = cytotoxicity, most hits filed as inhibitors; 1,400 compounds, 2% hits; shares compounds with Nrf2 block; A549 ARE-Fluc cells, cytotoxicity counterscreen; AID 720523;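 also: potency is read from the fitted curve at half-maximal effect; cells exposed to compounds for 18 to 24 hours; % is scaled to controls: 0 for no effect and ±100 for the full control effect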
Nrf2 ARE inh: confirmation of Nrf2 inhibitors in A549 ARE reporter cells; A549 ARE-firefly luciferase reporter, luminescence; 1,400 compounds, 74% hits; shares compounds with Nrf2 block; Potency, µM (series often up to 46.1 µM), for the others: at the highest dose activity change, negative = inhibition, usual class: inhibitors; also: potency is read from the fitted curve at half-maximal effect; % is scaled to controls: 0 for no effect and ±100 for the full control effect; nearly all actives have a fitted effect of over 65% in size
The depositor's hits bear a star. Unless noted, calls follow the shape of the dose curve; as a rule, active = well fitted curve in the direction sought with a large enough effect; inconclusive = small, poorly fitted or top-dose-only effect, or another doubt; inactive = no such curve, though single readings can be large; an effect the other way counts as inactive or inconclusive.

For CCN1CCN(C(=S)c2ccc(-c3ccccc3)cc2)CC1 the results were miR-21 reporter 6%, p53 reactivation -7%, A549 tox-1 -1%, ClpP mod -4%, Nrf2 block 5.2µM*, Nrf2 ARE act -2%, FLuc counter 3 inconclusive, A549 tox-2 -2% and Nrf2 ARE inh 6.5µM*.
Screening Cc1ccc(C(=S)N2CCN(Cc3ccccc3)CC2)cc1 returned miR-21 reporter -1%, p53 reactivation 15%, A549 tox-1 inconclusive, Nrf2 block -4% and Nrf2 ARE act 2%.
Screening Cn1c(N)c(C(=O)CSc2nn(-c3ccccc3)c(=S)s2)c(=O)n(C)c1=O returned p53 reactivation 2%, A549 tox-1 -16%, Nrf2 block 7.3µM*, Nrf2 ARE act 0%, FLuc counter 3 -10%, A549 tox-2 -12% and Nrf2 ARE inh 9.2µM*.
Screening CC(Sc1nn(-c2ccc(F)cc2)c(=S)s1)C(=O)c1c(N)n(C)c(=O)n(C)c1=O (stereo not given) returned p53 reactivation 5%, A549 tox-1 -5%, ClpP mod -1%, Nrf2 block inconclusive and Nrf2 ARE act 3%.
CCC(C)(C)c1ccc(OCCCC[n+]2cccc(C)c2)c(C(C)(C)CC)c1 was read as miR-21 reporter inconclusive, p53 reactivation -9%, A549 tox-1 inconclusive, Nrf2 block 8.2µM*, Nrf2 ARE act -2%, FLuc counter 3 -5%, A549 tox-2 inconclusive and Nrf2 ARE inh 6.5µM*.
CCOc1ccc(S(=O)(=O)N2CCN(S(=O)(=O)c3ccc(C(C)=O)cc3)CC2)cc1 was read as miR-21 reporter 6%, p53 reactivation 16%, A549 tox-1 4%, Nrf2 block 6% and Nrf2 ARE act 0%.
Screening CC(=O)c1ccc(S(=O)(=O)N2CCN(CCOc3ccc(Br)cc3)CC2)cc1 returned p53 reactivation -4%, A549 tox-1 inconclusive, ClpP mod -3%, Nrf2 block 4.1µM*, Nrf2 ARE act 1%, FLuc counter 3 0%, A549 tox-2 -8% and Nrf2 ARE inh 5.8µM*.
`Cc1nc(-c2ccccc2)sc1-c1ccc(SCC(=O)NCc2ccc(F)cc2)nn1` gave miR-21 reporter -9%, A549 tox-1 -4%, ClpP mod -10%, Nrf2 block 12% and Nrf2 ARE act 14%.
`CCn1c(C)cc(C(=O)CN2C(=O)c3ccccc3S2(=O)=O)c1C` gave p53 reactivation -13%, A549 tox-1 -3%, ClpP mod -4%, Nrf2 block 3.7µM*, Nrf2 ARE act -2%, FLuc counter 3 8.5µM* and A549 tox-2 3%.
For Cc1cc(C(=O)CN2C(=O)c3ccccc3S2(=O)=O)c(C)n1-c1ccccc1 the results were miR-21 reporter inconclusive, p53 reactivation -26%, A549 tox-1 -7%, ClpP mod -1%, Nrf2 block inconclusive and Nrf2 ARE act -2%.
`O=C(CN1C(=O)c2ccccc2S1(=O)=O)c1ccccc1Cl` gave miR-21 reporter inconclusive and p53 reactivation -30%.
`Cc1cc(C(=O)CN2C(=O)c3ccccc3S2(=O)=O)c(C)n1C(C)C` gave p53 reactivation -20%, A549 tox-1 -1%, ClpP mod -2%, Nrf2 block 2.9µM*, Nrf2 ARE act -3%, FLuc counter 3 6.7µM*, A549 tox-2 7% and Nrf2 ARE inh 8.2µM*.
For Cc1ccc(CSc2nnc(-n3c(=O)c(C#N)cc4c(=O)n5cc(C)ccc5nc43)s2)cc1 the results were miR-21 reporter -6%, A549 tox-1 0%, ClpP mod inconclusive, Nrf2 block 7% and Nrf2 ARE act -1%.
Screening C=CC[n+]1c(/C=C2\C=Cc3cc(C)ccc3N2CC)ccc2ccccc21 returned miR-21 reporter inconclusive, p53 reactivation -6%, A549 tox-1 inconclusive, ClpP mod -3%, Nrf2 block 4.6µM*, Nrf2 ARE act -1%, FLuc counter 3 -27%, A549 tox-2 15µM* and Nrf2 ARE inh 2.3µM*.
CN(Cc1ccc(Cl)s1)C(=O)CN1C(=O)N(C)C2(CCCCC2)C1=O was read as p53 reactivation 11%, A549 tox-1 3%, ClpP mod -2%, Nrf2 block 8% and Nrf2 ARE act 1%.
CCOC(=O)c1c(NC(=O)CC2SC(N)=NC2=O)sc2c1CCCC2 (stereo not given) was read as miR-21 reporter -2%, p53 reactivation 3%, A549 tox-1 -24%, ClpP mod -5%, Nrf2 block 1.6µM*, Nrf2 ARE act 3%, FLuc counter 3 -1%, A549 tox-2 -1% and Nrf2 ARE inh inconclusive.
Screening NC(=Nc1nc(-c2ccccn2)cc2ccccc12)c1ccccn1 returned A549 tox-1 -17%, ClpP mod 1%, Nrf2 block 1.5µM*, Nrf2 ARE act -1%, FLuc counter 3 -3%, A549 tox-2 -23% and Nrf2 ARE inh 1.6µM*.
CC(Oc1ccc(Br)cc1)C(=O)Nc1ccncc1 (stereo not given) was read as miR-21 reporter 13%, p53 reactivation -1%, A549 tox-1 -7%, Nrf2 block 8.2µM*, Nrf2 ARE act 0%, FLuc counter 3 0% and A549 tox-2 8%.
Screening Cc1ccc(OC(C)C(=O)Nc2ccncc2)cc1C (stereo not given) returned miR-21 reporter 19%, p53 reactivation 5%, A549 tox-1 11%, ClpP mod 1%, Nrf2 block inconclusive and Nrf2 ARE act 0%.
For C[C@H]1CN([C@@H](C)CO)C(=O)CCCn2cc(nn2)CO[C@@H]1CN(C)S(=O)(=O)c1ccc(Oc2ccccc2)nc1 the results were ClpP mod -1% and Nrf2 ARE act -2%.

By substructure, the compounds so far containing bromine (two)
Screening CC(=O)c1ccc(S(=O)(=O)N2CCN(CCOc3ccc(Br)cc3)CC2)cc1 returned p53 reactivation -4%, A549 tox-1 inconclusive, ClpP mod -3%, Nrf2 block 4.1µM*, Nrf2 ARE act 1%, FLuc counter 3 0%, A549 tox-2 -8% and Nrf2 ARE inh 5.8µM*.
CC(Oc1ccc(Br)cc1)C(=O)Nc1ccncc1 (stereo not given) was read as miR-21 reporter 13%, p53 reactivation -1%, A549 tox-1 -7%, Nrf2 block 8.2µM*, Nrf2 ARE act 0%, FLuc counter 3 0% and A549 tox-2 8%.
